## AlphaSeq binding of Ab-14 light chain variants to a spike HR2 peptide

From the AlphaSeq antibody data of Engelhart et al. 2022 (doi:10.1038/s41597-022-01779-4), copy in the FLAb collection.

Antigen: PDVDLGDISGINAS, a 14-residue peptide of the SARS-CoV-2 spike HR2 region.

Each scFv is VH, a 15-residue (Gly4Ser)3 linker, VL, as in the parent Ab-14, and differs from it in the CDRs of the light chain only.
VH: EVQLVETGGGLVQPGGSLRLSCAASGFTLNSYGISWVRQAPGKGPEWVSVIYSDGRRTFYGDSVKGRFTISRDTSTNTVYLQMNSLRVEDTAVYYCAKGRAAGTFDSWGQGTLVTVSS
VL: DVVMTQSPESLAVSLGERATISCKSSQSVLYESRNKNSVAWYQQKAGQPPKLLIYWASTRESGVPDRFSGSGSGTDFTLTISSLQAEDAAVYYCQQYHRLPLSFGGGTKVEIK

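Phage display of a naive human antibody library on the peptide gave the parent. In library AAYL50, one, two or three CDR residues were substituted; doubles and triples were drawn at random. In AlphaSeq, yeast of one mating type display the scFv and yeast of the other type display the target. Binding brings cells together so that they mate, and sequencing counts the barcode pairs among the diploids. The ratio of observed to expected reads was calibrated, replicate by replicate, on BCL2-family standards whose Kd was known from biolayer interferometry. The assay was run in three technical replicates.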

Positions count from residue 1 of the parent VL; Y31Q puts Q in place of Y.
Every variant below is changed at Y31 of the VL (sequential numbering).
Values are apparent Kd, the geometric mean of the replicates that gave a signal; lower means stronger binding.
"nd" means that the variant was in the library but no mating with the target was seen in any replicate; the authors take this as a sign of poor binding, and no number exists.
Nonspecific signal, from three strains lacking the peptide, appeared in 18% of pairings of library AAYL50, centred on 15 µM (5% of these signals below 970 nM); values are not corrected for it.
In this assay the parent's reference entry averaged 4.4 nM; its copy inside this library read 48 nM.

With Y31Q N35L N37S the result was 170 nM (3 of 3 replicates). Variant Y31L E32Y S62D showed 10 nM (3 of 3 replicates). With Y31A K36G R60S the result was 450 nM (3 of 3 replicates). Variant Y31T E32M R34D showed 3.0 nM (3 of 3 replicates). Variant Y31G S33V H98M showed 2.4 nM (3 of 3 replicates). Variant Q27A Y31D R34V gave 150 nM (3 of 3 replicates). For L30M Y31C E32A, the assay gave 60 nM (3 of 3 replicates). Variant L30C Y31T showed 9.9 nM (3 of 3 replicates).

With Y31N S33G R99K the result was 12 nM (3 of 3 replicates). With Y31Q the result was 5.7 nM (3 of 3 replicates). With Y31K N35W Q95C the result was 55 µM (2 of 3 replicates). Variant Y31R N35S K36I gave 1.9 µM (1 of 3 replicates). With Y31H A40M T59A the result was nd (0 of 3 replicates). With Y31W N37T S62F the result was 1.5 µM (1 of 3 replicates). For Y31V A40L Q96H, the assay gave 510 nM (3 of 3 replicates). Variant Y31Q R60E gave 130 nM (3 of 3 replicates).

For Y31L V39Y S103I, the assay gave nd (0 of 3 replicates). Variant Y31E S33H R60S gave 1.4 µM (1 of 3 replicates). Variant Y31E Y97S L100A gave 4.7 µM (1 of 3 replicates). With Y31L N35E the result was 7.3 µM (2 of 3 replicates). For S28C Y31N Q95A, the assay gave 9.0 nM (3 of 3 replicates). Variant Y31C E61Q S103V showed 140 nM (3 of 3 replicates). With Y31H N37E R60T the result was nd (0 of 3 replicates). Variant V29W Y31K L100E showed 3.6 nM (3 of 3 replicates).

With V29S Y31W T59E the result was 3.9 nM (3 of 3 replicates). For Y31A E32R, the assay gave 130 nM (3 of 3 replicates). Variant S28P Y31V K36C showed 13 nM (3 of 3 replicates). Variant Y31L E32R N35A gave nd (0 of 3 replicates). For S28Q Y31I H98I, the assay gave 100 nM (2 of 3 replicates). Variant S25P Y31I S33Y gave 41 µM (1 of 3 replicates).

Excerpt, the first 3 entries:

{"changes": "Y31Q N35L N37S", "Kd": "170 nM", "seen in": "3/3"}
{"changes": "Y31L E32Y S62D", "Kd": "10 nM", "seen in": "3/3"}
{"changes": "Y31A K36G R60S", "Kd": "450 nM", "seen in": "3/3"}